Results on one compound are retold here after patent publication US7052850B2, “Isolated human EDG-4 receptor” (priority 1997, dated 2006).

The assay has as its system human EDG-3. Description: NF-κB luciferase reporter in 293-EBNA cells, human EDG-3. It is filed as cell-based. As to conditions: Assay 3; pancreas EDG-3 clone; 3 μM. In general terms: In a reporter assay the amount or activity of a reporter protein is the signal.

As to `CCCCCCCCCCCCC/C=C/[C@@H](O)[C@@H](N)COP(=O)(O)O` [S1P, sphingosine 1-phosphate], the “induction of the NF-κB reporter gene compared to untreated controls” value was “about 8 fold”.
